Apparent affinities of Ab-14 variants for a coronavirus HR2 peptide

Reference: Li et al. 2023, doi:10.1038/s41467-023-39022-2. File: FLAb, binding data.

Target: peptide PDVDLGDISGINAS, taken from heptad repeat 2 (HR2) of SARS-CoV-2 spike.

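The parent was found by panning a naive human phage display library on the peptide. Designed CDR sequences, proposed from the first random library and measured here. Several design methods are mixed in this list. The scFvs were displayed on barcoded MATa yeast, the peptide on MATalpha yeast. Pairs that bind mate more often; barcode pairs of the diploids are counted by sequencing. A regression on co-assayed BCL2-family reference pairs converts the normalised counts of each replicate to an apparent Kd. Mating was done six times.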

Parent scFv Ab-14: VH joined to VL by a (GGGGS)3 linker. Changes lie in the heavy chain CDRs alone.
VH: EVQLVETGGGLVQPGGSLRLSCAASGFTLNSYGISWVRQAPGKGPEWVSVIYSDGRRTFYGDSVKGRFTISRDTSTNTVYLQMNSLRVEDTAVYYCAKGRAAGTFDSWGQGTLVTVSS
VL: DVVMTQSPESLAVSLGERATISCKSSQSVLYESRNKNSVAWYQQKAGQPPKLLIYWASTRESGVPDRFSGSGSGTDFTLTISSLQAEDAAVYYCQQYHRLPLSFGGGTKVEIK

Each variant is given by its three heavy chain CDRs, as the data file delimits them; those of the parent are GFTLNSYGIS, VIYSDGRRTFYGDSVK, GRAAGTFDS.
This list holds designs with more than six substitutions.
Values are apparent Kd, the geometric mean of the replicates that gave a signal; lower means stronger binding.
"nd" marks a missing value. The strain was present, yet no cells mated with the target were sequenced in any replicate, which points to weak or no binding.
The range of this assay differs from that of the first round, and the authors advise against merging the two.
In the paper, a design with two or fewer of six values counts as a poor binder.
Of ten entries with the parent sequence, four were seen in most replicates (averages 2.2 nM to 240 nM), three in one and three in none, so single entries are noisy.
Three control strains display no target. For all heavy chain designs, 1% of the pairings with them gave a signal, with a median of 120 nM and one signal in twenty below 7.0 nM, so weak values seen in few replicates may be background. The control count says in how many pairings with the empty strains this scFv gave a signal.

With GFDLNEYGIS | VIYADGRRTSYKDSVK | GNAAGTFDV the result was 760 pM (6 of 6 replicates; controls 0 of 18).
With GFDLNEYGIS | VIYADGMRTFYIDSVK | GNAAGTFDV the result was 230 pM (6 of 6 replicates; controls 0 of 18).
With GFNLNEYGIS | VIYADGMRVRYANNFK | GYLNTTLMV the result was nd (0 of 6 replicates; controls 0 of 18).
With GKLLDEYGIS | VIYADGLRMVYANSVK | GNLTDTLLV the result was nd (0 of 6 replicates; controls 0 of 18).
With GFDINEYGIS | VIYADGRRTFYADSVK | GETAGTFDV the result was 320 pM (6 of 6 replicates; controls 0 of 18).
With GYDIQDYGIS | VIYADGVRTVYHDSVK | GQLAGFFIT the result was nd (0 of 6 replicates; controls 0 of 18).
With GFQLDEVGIS | VIYADGIRRAYASKVK | GGEAASFDL the result was nd (0 of 6 replicates; controls 0 of 18).
With GFDLNEYGIS | VIYADGVRTFYSDSVK | GNVAGTFDS the result was 1.6 nM (6 of 6 replicates; controls 0 of 18).
With GFDLNEYGIS | VIYADGQRTAYADSVK | GANAGTFDV the result was 190 pM (6 of 6 replicates; controls 0 of 18).
With GFSLDEYGIS | VIYADGMRSAYSDKVK | GEVDEYAYV the result was nd (0 of 6 replicates; controls 0 of 18).
With GFDLNEYGIS | VIYADGRRTFYADSVK | GNVAGTFDL the result was 440 pM (6 of 6 replicates; controls 0 of 18).
With GFNLNEFGIS | VIYADGKRQAYVPNVK | GHLGGHFDM the result was nd (0 of 6 replicates; controls 1 of 18).
With GFDLDEYGIS | VIYADGVRKAYADSVK | GQNAGTFDV the result was 190 pM (6 of 6 replicates; controls 0 of 18).
With GFDLNEYGIS | VIYADGKRTRYSNNVK | GGVGGIGLS the result was 87 nM (1 of 6 replicates; controls 0 of 18).
With GFDLDEYGIS | VIYADGKRTAYSDSVK | GNQAGTFDV the result was 340 pM (6 of 6 replicates; controls 0 of 18).
With GFDLNEYGIS | VIYADGMRTAYADDVK | GEQAGTFDV the result was 470 pM (6 of 6 replicates; controls 0 of 18).
With GFDLNEYGIS | VIYADGRRTAYIDSVK | GNQAGTFDL the result was 280 pM (6 of 6 replicates; controls 0 of 18).
With GFDLNEYGIS | VIYADGVRTFYSDSVK | GENAGFFDV the result was nd (0 of 6 replicates; controls 0 of 18).
With GFDLNEYGIS | VIYADGRRTSYVDSVK | GVNAGTFDS the result was 4.4 nM (6 of 6 replicates; controls 0 of 18).
With GFDLEEMGIS | VIYADGIRTAVSEDVK | GNVAGTGDF the result was 52 nM (1 of 6 replicates; controls 0 of 18).
With GFDLDEYGIS | VIYADGSRTFYADSVK | GNVAGTFDV the result was 2.1 nM (6 of 6 replicates; controls 0 of 18).
With GFDLEEYGIS | VIYADGMRTTAIDKVK | GIAGGLFLV the result was nd (0 of 6 replicates; controls 0 of 18).
With GFDLNEYGIS | VIYADGRRTAYADSVK | GEAAGTFDD the result was 550 pM (6 of 6 replicates; controls 0 of 18).
With GFDLNEYGIS | VIYADGRRTAYADSVK | GETAGTFDS the result was 11 nM (3 of 6 replicates; controls 0 of 18).
With GFDLDEYGIS | VIYADGKRTFYSDSVK | GNVAGTFDV the result was 510 pM (6 of 6 replicates; controls 0 of 18).
With GEDLQEYGIS | VIYADGLRTAYADNFK | GHLGGQFDM the result was 1.1 µM (1 of 6 replicates; controls 0 of 18).
With GFNLNEYGIS | VIYADGMRKFYADSVK | GNTAGTFDV the result was 150 pM (6 of 6 replicates; controls 0 of 18).
With GYDLNEYGIS | VIYADGRRVAYIDDVK | GHVSDHFAL the result was nd (0 of 6 replicates; controls 2 of 18).
With GFDLNEYGIS | VIYADGTRTQYIDSVK | GNVAGTFDS the result was 830 pM (6 of 6 replicates; controls 0 of 18).
With GFDINEYGIS | VIYADGQRESYAESVK | GFNQTINLV the result was nd (0 of 6 replicates; controls 0 of 18).
With GFDLNEYGIS | VIYADGMRTAYSDSVK | GETAGTFDL the result was 540 pM (6 of 6 replicates; controls 0 of 18).
With GFDLMEYGIS | VIYADGERKSYAESFK | GGVNVQLGT the result was nd (0 of 6 replicates; controls 0 of 18).
With GFDLNEYGIS | VIYADGMRTAYSDSVK | GENAGTFVL the result was 16 nM (6 of 6 replicates; controls 0 of 18).
With GFDLNEYGIS | VIYADGMRTAYSDSVK | GGNAGTFDT the result was 540 pM (6 of 6 replicates; controls 0 of 18).
With GFQLDEYGIS | VIYADGRRTFYQDSVK | GEVAGTFDA the result was 590 pM (6 of 6 replicates; controls 0 of 18).
With GFDLDEYGIS | VIYADGKRTAYADTVK | GNVAGTFDV the result was 380 pM (6 of 6 replicates; controls 0 of 18).
With GFSLDEYGVS | VIYADGMRTQYTPNVK | GQTGFDYGL the result was nd (0 of 6 replicates; controls 0 of 18).
With GFDLNEYGIS | VIYADGVRTSYADSVK | GEVAGTFDV the result was 1.0 nM (6 of 6 replicates; controls 0 of 18).
With GFQIDEYGIS | VIYADGKRSGYKNEVK | GNFNVSGSV the result was nd (0 of 6 replicates; controls 0 of 18).
With GFDLNEYGIS | VIYADGMRTAYSDDVK | GTNAGTFDV the result was 290 pM (6 of 6 replicates; controls 0 of 18).
With GFDLNEYGIS | VIYADGLRTVYADSVK | GQNAGTFDQ the result was 420 pM (6 of 6 replicates; controls 0 of 18).
With GFDLDEYGIS | VIYADGMRTAYADDVK | GTNAGTFDV the result was 190 pM (6 of 6 replicates; controls 0 of 18).
With GFDLDEYGIS | VIYADGSRTAYSDSVK | GNVAGTFDT the result was 1.3 nM (6 of 6 replicates; controls 0 of 18).
With GFDLNEYGIS | VIYADGRRTFYSDSVK | GEIAGFFDI the result was 230 nM (3 of 6 replicates; controls 1 of 18).
With GFDIQDYGIS | VIYADGSRTAYTNSVK | GVQGASYDL the result was 190 nM (1 of 6 replicates; controls 2 of 18).
With GFDLNEYGIS | VIYADGMRTAYADSVK | GTVAGTFDV the result was 310 pM (6 of 6 replicates; controls 0 of 18).

The 8 strongest on average among those seen in every replicate, once more:

| CDR-H1 | CDR-H2 | CDR-H3 | Kd (apparent) | seen in | empty controls |
|---|---|---|---|---|---|
| GFNLNEYGIS | VIYADGMRKFYADSVK | GNTAGTFDV | 150 pM | 6/6 | 0/18 |
| GFDLDEYGIS | VIYADGMRTAYADDVK | GTNAGTFDV | 190 pM | 6/6 | 0/18 |
| GFDLDEYGIS | VIYADGVRKAYADSVK | GQNAGTFDV | 190 pM | 6/6 | 0/18 |
| GFDLNEYGIS | VIYADGQRTAYADSVK | GANAGTFDV | 190 pM | 6/6 | 0/18 |
| GFDLNEYGIS | VIYADGMRTFYIDSVK | GNAAGTFDV | 230 pM | 6/6 | 0/18 |
| GFDLNEYGIS | VIYADGRRTAYIDSVK | GNQAGTFDL | 280 pM | 6/6 | 0/18 |
| GFDLNEYGIS | VIYADGMRTAYSDDVK | GTNAGTFDV | 290 pM | 6/6 | 0/18 |
| GFDLNEYGIS | VIYADGMRTAYADSVK | GTVAGTFDV | 310 pM | 6/6 | 0/18 |